Apparent affinities of Ab-14 variants for a coronavirus HR2 peptide

Source: Li et al. 2023 (doi:10.1038/s41467-023-39022-2), MIT Lincoln Laboratory and A-Alpha Bio; data file from the FLAb repository.

Binding partner: SARS-CoV-2 spike HR2 peptide, sequence PDVDLGDISGINAS.

Parent: Ab-14, a human scFv built as VH, a 15-residue (Gly4Ser)3 linker, VL. Only the CDRs of the light chain vary.
VH: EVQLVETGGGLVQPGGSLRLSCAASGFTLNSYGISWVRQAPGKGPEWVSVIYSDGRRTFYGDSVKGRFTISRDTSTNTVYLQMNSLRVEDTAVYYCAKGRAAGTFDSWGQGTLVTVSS
VL: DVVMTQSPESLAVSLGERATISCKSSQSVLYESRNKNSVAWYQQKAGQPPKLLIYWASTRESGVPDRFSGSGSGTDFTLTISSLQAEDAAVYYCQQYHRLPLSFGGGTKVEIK

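The starting antibody came from a phage panning campaign against this peptide. The variants were designed computationally from a first round of random CDR variants and then made and measured. Group labels follow the data file (Ctrl: baseline library sampled from a position-specific scoring matrix, with some repeated check sequences; GP: Gaussian process model; HC: hill climbing; Gen: genetic algorithm; Gibbs: Gibbs sampling; a sequence that several methods proposed may carry one label only). In AlphaSeq, yeast of one mating type display the scFv and yeast of the other type display the target. After mating in shaken culture at 30 °C for 16 h, diploids were selected and their barcode pairs sequenced. Scores were corrected for input abundance and mapped to Kd with protein pairs of known affinity run in the same pool. Each pool was mated in six replicate cultures.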

Variants are written as CDR1, CDR2 and CDR3 of the light chain (limits as in the source). Parent: KSSQSVLYESRNKNSVA, WASTRES, QQYHRLPLS. This list holds designs with at most six substitutions. Affinities are written as log10 Kd with Kd in nM; a lower number is a better binder. The mean shown is taken over the replicates in which the pair was detected. A pair that was not seen in that replicate is written "ND"; this usually means weak binding, but a binder can also be missed. Values of this round are not directly comparable with the first-round values of the same sequences. As a blank, each scFv also met three strains without target: over all light chain designs, 4% of these pairings were detected, typically at 2.64 and seldom below 1.59. The parent sequence was in this pool as ten entries: three were never detected, three once, and four in most replicates, with averages from 0.34 to 2.37. The authors averaged sequences with at least three values out of six and counted those with two or fewer as poor binders.

- KLSQSHLYESRNKNSVA / NASQRLS / QQYHRLPLS [GP_Gen] = 0.61, 0.56, 0.22, 0.27, 0.27, 0.43 (mean 0.39)
- KLPNSTLYESRQKNSVA / NASTRES / QQYHRLPLS [GP_HC] = 0.80, 0.20, 0.85, 0.47, 0.87, 0.80 (mean 0.67)
- KLSQSFLYESRNKNSVA / GASTRES / QEYHRLTLS [GP_HC] = 0.38, 1.01, 0.15, 0.38, 0.35, 0.88 (mean 0.52)
- KLQQSELYESRNKNSVA / DASTRLS / QQYHRLPLS [GP_Gen] = 0.17, -0.18, -0.26, -0.25, -0.16, -0.01 (mean -0.11)
- KGSQSVLYYSRNKNSVA / KASTRES / QQYHRLPLS [Ctrl] = 0.63, 0.54, 2.58, 1.45, 1.69, 1.12 (mean 1.34)
- KVSQSVLPESENKNSVA / WASTRER / QQYHRLPLS [Ctrl] = 1.16, 1.31, 0.96, 2.08, 0.87, 1.87 (mean 1.38)
- KLSQSWLYESRNKNSVA / EASTREV / QQYHRLPLS [GP_Gen] = 0.06, -0.04, -0.13, -0.31, -0.09, -0.17 (mean -0.11)
- KSSQSFLAESRNKNSVA / WASTRES / CQYHRLPLS [Ctrl] = ND, ND, ND, ND, ND, ND
- KSSQSVLEESRNKNCVA / WASTRES / QQYHRLPLS [Ctrl] = 0.99, 0.88, 1.52, 1.65, 1.57, 1.21 (mean 1.30)
- KLRMSTLYESRNKNSVA / NASTRES / QQYHRLPLS [GP_HC] = 0.58, 0.17, 0.39, 0.03, 0.22, 0.37 (mean 0.29)
- KLSQSVLYESRNKNSVA / DASTRCS / QQYHRLPLS [GP_Gen] = -0.27, -0.42, -0.41, -0.57, -0.38, -0.30 (mean -0.39)
- HSSPSVEYESRNKNSVA / NASLRES / QQYHRLPLS [GP_HC] = 0.69, 0.47, 0.74, 0.71, 0.89, 0.60 (mean 0.68)
- KLSQSMLYESRNKNSVA / NASTRES / QDYHRLPLS [GP_Gen] = 0.37, 0.21, 0.20, 0.18, 0.12, 0.37 (mean 0.24)
- KLSQSVLYESRNKNSVA / NGSTRED / QQYHRLPLS [GP_Gen] = -0.32, -0.42, -0.60, -0.53, -0.48, -0.43 (mean -0.46)
- KSSQSVTYESRNKNSVA / EASTRES / QQYHRLPLS [Ctrl] = 0.50, 0.33, 0.20, 0.28, 0.08, 0.54 (mean 0.32)
- KSSQSVLYESRNKNSVA / YASTRES / QQYHMLPLS [Ctrl] = ND, 2.34, 1.69, 2.16, 2.04, 2.21 (mean 2.09)
- KMSQSWLYESRNKNSVA / NGSQRES / QQYHRLPLS [GP_Gen] = -0.18, -0.10, -0.35, -0.59, -0.27, -0.27 (mean -0.29)
- KSSQSVSYESRNKNSVA / QASTRES / QQYHRLPLS [Ctrl] = 0.21, -0.12, -0.11, -0.02, -0.11, -0.01 (mean -0.03)
- KMSQSVLGEQRNKNSVA / DISTRES / QQYHRLPLS [GP_HC] = 0.02, -0.18, -0.35, 0.01, -0.06, -0.28 (mean -0.14)
- FLSQSQLYESRNKNSVA / NGSTRES / QDYHRLPLS [GP_Gibbs] = 1.22, 0.49, 0.58, 0.57, 1.16, 1.05 (mean 0.84)
- KVSQSELYESRNKNSVA / EASQRES / QDYHRLPLS [GP_Gen] = -0.24, -0.58, -0.25, -0.34, -0.43, -0.33 (mean -0.36)
- DSSQSVLYESRNKNSVA / GASTRES / QQYHRLPLS [GP_HC] = 0.35, -0.10, -0.05, 0.10, -0.21, -0.01 (mean 0.01)
- KSQQGVLYESRNKNSVA / GASLRES / QQYHRLPLS [GP_HC] = 0.14, 0.24, 0.26, -0.11, 0.10, 0.30 (mean 0.16)
- KVQQSTLYESRNKNSVA / NASTRES / QQYHRLPLS [GP_HC] = -0.06, 0.35, 0.40, 0.33, 0.13, 0.10 (mean 0.21)
- KSSNSVTYESRNKNSVA / WATTRES / QQYHRLPLS [Ctrl] = ND, ND, 1.50, ND, 3.07, ND (mean 2.29)
- KSSQPVLYESRNKNSVA / WASTRES / QLYHRLPLS [Ctrl] = ND, ND, ND, ND, ND, 2.88
- KSSPSVLYESRNKASVA / DASTRMS / QQYHRLPLS [GP_Gibbs] = 1.17, 0.47, 2.02, 0.49, 0.39, 0.67 (mean 0.87)
- KWSQSDLYESRNKNSVA / WASTRES / QQYHRLPLS [Ctrl] = 2.12, 1.48, 1.57, 0.41, 1.98, 1.66 (mean 1.54)
- KSSHSVLYMSRNKNSVA / WASTRES / QQYHRLPLG [Ctrl] = ND, ND, 1.68, ND, ND, ND
- KSSQSVPYEYRNKNSVA / WASTRES / QQYHRLPLS [Ctrl] = 1.57, 1.37, 1.01, 1.11, 1.82, 1.97 (mean 1.47)
- KVSQSFLYEERNKNSVA / NASQRES / QQYHRLPLS [GP_Gen] = -0.02, -0.12, -0.15, -0.29, -0.20, 0.06 (mean -0.12)
- KLSSSFLYEDRNKNSVA / QASQRES / QQYHRLPLS [GP_Gibbs] = -0.05, -0.24, -0.38, -0.29, -0.10, -0.27 (mean -0.22)
- KSSISVLYNSRNKNSVA / DASTRES / QQYVRLPLS [Ctrl] = 0.63, 0.70, 1.16, 0.84, 1.04, 1.04 (mean 0.90)
- KLEQSIEYESRNKNSVA / NASTREQ / QQYHRLPLS [GP_HC] = -0.19, -0.30, -0.46, -0.51, -0.47, -0.07 (mean -0.34)